{"source": "paper PMC11181328", "about": "(Journal of Medicinal Chemistry, 2024)", "key": {"KOR [1]": {"target": "T1, KOR (Mus musculus, UniProt P33534)", "T1 construct": "expressed in transfected cells; membrane homogenate", "experiment": "Competitive radioligand binding assay, KOR", "settings": "ratio of Ki values"}, "KOR [2]": {"target": "T1, KOR", "experiment": "[35S]-GTPγS functional assay, KOR", "assay_type": "biochemical", "settings": "percent of U50,488 full agonist control"}, "DOR": {"target": "T2, DOR (Homo sapiens, UniProt P41143)", "T2 construct": "expressed in transfected cells; membrane homogenate", "experiment": "[35S]-GTPγS functional assay, DOR", "assay_type": "biochemical", "settings": "percent of SNC80 full agonist control"}, "MOR": {"target": "MOR (Mus musculus, UniProt P42866)", "experiment": "[35S]-GTPγS functional assay, MOR", "assay_type": "biochemical", "design": "expressed in transfected cells; membrane homogenate", "settings": "read-out: [35S]-GTPγS functional activity MOR Emax (%)"}}, "note": "Counter-ions that a name gives are not always drawn.", "data": [{"smiles": "CN(C(=O)CCc1ccoc1)[C@@H]1CC[C@@]2(O)[C@H]3Cc4ccc(O)c5c4[C@@]2(CCN3CC2CC2)[C@H]1O5", "note": "[Compound 7, 17-Cyclopropylmethyl-3,14β-dihydroxy-4,5α-epoxy-6β-[3′-(furan-3″-yl)-N-methylpropanamido]morphinan Hydrochloride]", "values": [{"measurement": "selectivity ratio δ/κ", "setting": "KOR [1]", "result": 30}, {"measurement": "selectivity ratio μ/κ", "setting": "KOR [1]", "result": 2}]}, {"smiles": "CN(C(=O)CCc1ccco1)[C@H]1CC[C@@]2(O)[C@H]3Cc4ccc(O)c5c4[C@@]2(CCN3CC2CC2)[C@H]1O5", "note": "[Compound 13, 17-Cyclopropylmethyl-3,14β-dihydroxy-4,5α-epoxy-6α-[3′-(furan-2″-yl)-N-methylpropanamido]morphinan Hydrochloride]", "values": [{"measurement": "selectivity ratio δ/κ", "setting": "KOR [1]", "result": 3}, {"measurement": "selectivity ratio μ/κ", "setting": "KOR [1]", "result": 1}]}, {"smiles": "Cl.O=C(CCc1ccco1)N[C@H]1CC[C@@]2(O)[C@H]3Cc4ccc(O)c5c4[C@@]2(CCN3CC2CC2)[C@H]1O5", "note": "[Compound 14, 17-Cyclopropylmethyl-3,14β-dihydroxy-4,5α-epoxy-6α-[3′-(furan-2″-yl)propanamido]morphinan Hydrochloride]", "values": [{"measurement": "Emax", "setting": "KOR [2]", "result": "80.8 ± 3.02", "unit": "%"}, {"measurement": "Emax", "setting": "DOR", "result": "75.2 ± 2.46", "unit": "%"}]}, {"smiles": "CN(C(=O)CCc1ccco1)[C@@H]1CC[C@@]2(O)[C@H]3Cc4ccc(O)c5c4[C@@]2(CCN3CC2CC2)[C@H]1O5", "note": "[Compound 15, 17-Cyclopropylmethyl-3,14β-dihydroxy-4,5α-epoxy-6β-[3′-(furan-2″-yl)-N-methylpropanamido]morphinan Hydrochloride]", "values": [{"measurement": "selectivity ratio δ/κ", "setting": "KOR [1]", "result": 23}, {"measurement": "selectivity ratio μ/κ", "setting": "KOR [1]", "result": 2}]}, {"smiles": "Cl.O=C(CCc1ccco1)N[C@@H]1CC[C@@]2(O)[C@H]3Cc4ccc(O)c5c4[C@@]2(CCN3CC2CC2)[C@H]1O5", "note": "[Compound 16, 17-Cyclopropylmethyl-3,14β-dihydroxy-4,5α-epoxy-6β-[3′-(furan-2″-yl)propanamido]morphinan Hydrochloride]", "values": [{"measurement": "Emax", "setting": "KOR [2]", "result": "93.7 ± 1.01", "unit": "%"}, {"measurement": "Emax", "setting": "DOR", "result": "40.9 ± 2.33", "unit": "%"}]}, {"smiles": "O=C(/C=C/c1ccco1)N[C@H]1CC[C@@]2(O)[C@H]3Cc4ccc(O)c5c4[C@@]2(CCN3CC2CC2)[C@H]1O5", "note": "[Compound 22, 17-Cyclopropylmethyl-3,14β-dihydroxy-4,5α-epoxy-6α-[(2E)-3′-(furan-2″-yl)prop-2-enamido]morphinan Hydrochloride]", "values": [{"measurement": "Emax", "setting": "KOR [2]", "result": "89.6 ± 7.25", "unit": "%"}, {"measurement": "Emax", "setting": "MOR", "result": "12.7 ± 1.05", "unit": "%"}, {"measurement": "Emax", "setting": "DOR", "result": "61 ± 2.21", "unit": "%"}, {"measurement": "selectivity ratio δ/κ", "setting": "KOR [1]", "result": 8}]}, {"smiles": "O=C(/C=C/c1ccco1)N[C@@H]1CC[C@@]2(O)[C@H]3Cc4ccc(O)c5c4[C@@]2(CCN3CC2CC2)[C@H]1O5", "note": "[Compound 24, 17-Cyclopropylmethyl-3,14β-dihydroxy-4,5α-epoxy-6β-[(2E)-3′-(furan-2″-yl)prop-2-enamido]morphinan Hydrochloride]", "values": [{"measurement": "Emax", "setting": "KOR [2]", "result": "98.53 ± 0.6", "unit": "%"}, {"measurement": "Emax", "setting": "MOR", "result": "7.33 ± 0.65", "unit": "%"}, {"measurement": "Emax", "setting": "DOR", "result": "42.8 ± 4.01", "unit": "%"}]}]}
